Measured values as given in patent publication USRE30413E, “Bleomycinic acid and process for preparing thereof” (Zaidan Hojin Biseibutsu Kagaku Kenkyu Kai, priority 1971, dated 1980).
Where two headings read alike, the source gives them in different places.

Tested on: ICR-JCL male mice
Settings: for Total, degree of fibrosis ++: number of mice with grade ++, fourth Total column; for Total, degree of fibrosis -: number of mice with grade -, first Total column

benzylamino-bleomycin
toxicity (compared with bleomycin B2, lung fibrosis in mice, 10 mg./kg. i.v. over 10 days): lower
Total, degree of fibrosis ++ (lung L): 0
Total, degree of fibrosis - (lung L): 8
Total, degree of fibrosis ± (lung L, number of mice with grade ±, second Total column): 1
Total, degree of fibrosis ± (lung L, number of mice, third Total column (head prints ± again)): 1
Total, degree of fibrosis ++ (lung R): 0
Total, degree of fibrosis - (lung R): 7
Total, degree of fibrosis ± (lung R, number of mice with grade ±, second Total column): 3
Total, degree of fibrosis ± (lung R, number of mice, third Total column (head prints ± again)): 0
